Values of other authors as cited in patent US20160165928A1, “METHODS OF REDUCING METHANE EMISSION DERIVED FROM RUMINAL FERMENTATION WHILE SIMULTANEOUSLY REDUCING RISK OF NITRATE INTOXICATION” (Grasp Indústria e Comércio Ltda., priority 2011, published 2016).
This is a selection: effects in other tests are not listed, and their absence says nothing.

System: methane produced by rumen fermentation
Details: uncoated/unprotected salts

Substance: ammonium nitrate
- methane emission in ruminants: reduced methane emission
